Earlier results on 1 substance are cited in patent publication US6362171B1, “Aminoaklanoyl-linked conjugates of 2′,5′-oligoadenylate and antiviral uses thereof” (priority 1997, dated 2002).

Data set [1] concerns cells. The following applies: literature ref [9]; cited from earlier work.
For data set [2] the following is noted: literature ref [9]; cited from earlier work.

For (2′-5′)d^3′(A-A-A) [CCC], the Toxicity to cells result in data set [1] is reported as “not toxic to cells”. Besides, in data set [2], the Metabolic stability entry is given as “metabolically stable”.
